Results: PubChem BioAssay AID540277 (National Center for Advancing Translational Sciences (NCATS), 2011)
The list shows a part of the results, in another mix than the full data. Records with an inconclusive call do not appear. Calls of active or inactive are those of the source. No stated cut-off is given here; in the data, active means potentiation above about 80%; inconclusive means between about 30% and that limit; inactive means weaker than that.
Further: 0% is about no effect.

Chains of the proteins cited; added tags and fusions are not shown.
UniProt Q8NER1, whole entry: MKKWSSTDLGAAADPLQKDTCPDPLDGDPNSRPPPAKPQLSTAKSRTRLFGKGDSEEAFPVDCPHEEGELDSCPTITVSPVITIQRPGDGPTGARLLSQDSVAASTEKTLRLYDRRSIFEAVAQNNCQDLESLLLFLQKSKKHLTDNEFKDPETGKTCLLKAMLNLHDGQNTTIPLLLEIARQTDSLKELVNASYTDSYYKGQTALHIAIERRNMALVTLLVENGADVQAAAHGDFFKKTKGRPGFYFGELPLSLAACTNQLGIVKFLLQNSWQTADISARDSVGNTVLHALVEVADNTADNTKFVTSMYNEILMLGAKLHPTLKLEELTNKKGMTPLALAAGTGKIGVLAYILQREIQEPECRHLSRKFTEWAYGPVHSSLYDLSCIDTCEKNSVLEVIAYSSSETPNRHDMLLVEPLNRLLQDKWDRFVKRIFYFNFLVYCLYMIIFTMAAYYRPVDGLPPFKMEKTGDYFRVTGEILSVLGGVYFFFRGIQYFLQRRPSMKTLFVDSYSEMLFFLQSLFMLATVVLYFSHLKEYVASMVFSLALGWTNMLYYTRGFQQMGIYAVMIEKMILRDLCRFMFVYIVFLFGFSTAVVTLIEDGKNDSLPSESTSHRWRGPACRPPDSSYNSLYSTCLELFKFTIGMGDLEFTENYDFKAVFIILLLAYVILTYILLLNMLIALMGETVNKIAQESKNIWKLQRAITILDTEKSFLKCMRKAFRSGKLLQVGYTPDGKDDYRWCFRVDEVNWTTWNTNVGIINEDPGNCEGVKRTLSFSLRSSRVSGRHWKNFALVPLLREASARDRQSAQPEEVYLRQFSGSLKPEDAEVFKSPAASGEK

These molecules were tested against Transient receptor potential cation channel subfamily V member 1 (Homo sapiens) (UniProt Q8NER1) (assay: HTS Assay for Compounds that Act as Potentiators of the Vanilloid Receptor 1). Conditions: TRPV1-expressing cells, Fluo-8 calcium influx, capsaicin EC20 potentiation; at 8.33 µM; stronger effect = higher value.
From the text: The transient receptor potential ion channel, family V, number 1, (TRPV1) is one of the most important molecular transducers of painful stimuli and a potential target for analgesic drug development. Although recent clinical trials with orthosteric antagonists have not produced a successful drug because of a hyperthermia side effect and their tendency to block thermal noxious pain, this ion channel is undeniably well placed in the pain pathway, and the idea of blocking pain signals before they enter the CNS is an excellent concept and of proven efficacy when TRPV1 agonists are used. […]
Upon TRPV1 activation in TRPV1 cells, the channel opens and extracellular cations flow through the channel into the cytosol. […] The amount of accumulated calcium is precisely quantified using the FDSS kinetic reader and the calcium dye. […] Plates will be loaded into the FDSS kinetic reader and a 1 sec / cycle for 10 second baseline signal will be measured. Compound library will then be added with a pintool at 23 nl and measured kinetically for 3 minutes. This portion of the read is considered the agonist portion of the screen. […] Signal will be measured kinetically for an additional 2 minutes. This portion of the read is considered the allosteric enhancer portion of the screen. The FDSS reader has a standard filter set capable of measuring calcium bound Fluo-8 (ex=480 and em=520 nm).
With `CCC(C)N(CC(C)C)C(=S)SC(NC(C)=O)C(Cl)(Cl)Cl` (configuration not stated) the potentiation was inactive: 28.4%. In the case of `CCc1ccc(OP(C)(=O)O)cc1`, the potentiation is reported as inactive: -7.87%.
